## Antibody variant affinities, Ab-95 light chain, assay 2

Data: MIT Lincoln Laboratory AlphaSeq set, Engelhart et al. 2022, doi:10.1038/s41597-022-01779-4, as distributed in FLAb.

The target is the same throughout: PDVDLGDISGINAS, from the HR2 region of SARS-CoV-2 spike.

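The parent was found by panning a naive human phage display library on the peptide. The library (AAYL52) carries one to three amino acid substitutions per variant, with no insertions or deletions. Affinity was read by AlphaSeq, a pooled yeast mating assay with surface-displayed partners. Pairs that bind mate more often; barcode pairs of the diploids are counted by sequencing. Scores were corrected for input abundance and mapped to Kd with protein pairs of known affinity run in the same pool. There are three technical replicates.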

Each scFv is VH, a 15-residue (Gly4Ser)3 linker, VL, as in the parent Ab-95, and differs from it in the CDRs of the light chain only.
VH: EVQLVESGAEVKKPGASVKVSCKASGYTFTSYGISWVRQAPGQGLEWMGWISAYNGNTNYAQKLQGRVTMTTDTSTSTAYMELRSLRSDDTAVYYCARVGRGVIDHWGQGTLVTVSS
VL: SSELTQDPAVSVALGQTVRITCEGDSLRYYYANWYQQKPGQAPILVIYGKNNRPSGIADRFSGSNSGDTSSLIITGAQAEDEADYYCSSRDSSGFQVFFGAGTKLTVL

Positions count from residue 1 of the parent VL; G24T puts T in place of G.
Affinities are written as log10 Kd with Kd in nM; a lower number is a better binder.
Replicates are averaged; those with no signal do not enter the mean.
Where no diploid with the target was found in any replicate, the entry reads "no signal": below detection, most likely a poor binder, though not proof of it.

changes | mean, log10 nM | replicates with signal
G24T/Y31N/R53V | 3.82 | 2/3
D25W/Y29H | 2.52 | 3/3
D25I/S89I/R90V | 3.21 | 3/3
D25P/S88V | 3.11 | 3/3
S26H/Y30D/R53D | 3.91 | 3/3
N33T/S89C/S92T | 4.21 | 1/3
Y30M/R53N/V97F | 3.31 | 2/3
S55I/S89K/S92P | 2.95 | 3/3
E23D/A32T/N52G | 1.81 | 3/3
Y30Q/R90V/S92E | no signal | 0/3
Y29Q/S55T/F98M | 3.49 | 3/3
G24H/Y30C/N52K | 3.87 | 3/3
E23R/S92C/F95M | 3.65 | 3/3
Y31N/S92L/S93G | 3.05 | 3/3
S26M/Y29L/R90T | 4.09 | 1/3
Y29E/K50N/R53V | 2.71 | 3/3
E23S/S88Q/G94F | 2.11 | 3/3
E23T/Y31T/S89G | 1.68 | 3/3
N33T/K50E/R90D | 3.47 | 3/3
G24E/N51H/V97I | 4.97 | 2/3
E23T/K50L/S55Y | 2.64 | 3/3
E23F/G94D/F98S | 3.73 | 2/3
R28T/Y29A/N33I | 3.40 | 2/3
S26N/R53E/S55M | 4.05 | 1/3
N33K/V97Y/F98I | 4.60 | 2/3
S26W/N51A/S89K | 4.63 | 1/3
Y31C/F95S | 2.10 | 3/3
A32E/S89I/F95D | 4.12 | 2/3
N33R/R90I/Q96M | 4.26 | 3/3
Y29S/R53W/R90G | 3.50 | 1/3
S26Q/A32M/G49V | no signal | 0/3
P54H/F95Q | 2.47 | 2/3
N52R/F95C | 2.86 | 2/3

Second part, the sequence after the result:

mean, log10 nM | replicates with signal | changes
no signal | 0/3 | G49Y/S93D/Q96D
3.73 | 3/3 | R28V/S92K
no signal | 0/3 | E23I/Y29V/N51A
4.18 | 3/3 | S26K/Y31G/N52G
2.19 | 3/3 | P54V/S55D/S89T
3.03 | 2/3 | N52S/S92E/G94R
no signal | 0/3 | R53G/S93M/F98T
4.11 | 2/3 | A32Y/N33Q/S93F
2.49 | 1/3 | D25W/R28W/S55N
3.66 | 2/3 | S26T/N52W/V97S
4.18 | 2/3 | R53Q/P54C/R90V
4.03 | 1/3 | R28P/Y30M/G94V
2.38 | 3/3 | Y30D/N51E/S88C
3.81 | 1/3 | L27D/S92T
4.28 | 2/3 | D25S/L27K/R53D
4.22 | 3/3 | E23W/K50A/R53P
3.90 | 3/3 | Y29N/A32M/S92H
3.41 | 2/3 | Y29F/S88V/S93P
4.49 | 2/3 | G49K/R53H/V97T
3.96 | 2/3 | L27W/G49Y/F95C
3.01 | 1/3 | Y29H/S89H/F98S
3.87 | 3/3 | E23M/G24I/Y29N
3.56 | 2/3 | E23L/N33H/S89R
3.25 | 3/3 | Y30F/S88L/G94S
3.54 | 3/3 | D25M/G49W/R53F
4.26 | 1/3 | K50F/N52R/G94Y
3.27 | 2/3 | N33H/S93F
no signal | 0/3 | S55R/S93I/Q96T
no signal | 0/3 | L27P/S55V/Q96I
4.93 | 2/3 | G24E/R53D/S55D
4.85 | 1/3 | S26H/L27E/N51S
no signal | 0/3 | S93I/V97S
4.57 | 3/3 | N52T/R53N/S89M

Empty control strains, which show no peptide, gave a signal in 28% of pairings with library AAYL52; the median was 3.91 and 95% of these signals were weaker than 2.90. No background was subtracted.
Parent in this assay: reference entry 2.31, copy in this library 2.25.